# Results reported in patent US7041461B2 (H. Lundbeck A/S, priority 1998, dated 2006).
# Assays:
# [1] = target: rat spinal cord membrane receptor; test: Radioligand binding to rat spinal cord membranes; details: * marks difference from NPFF1
# Description: Transfected cells from culture flasks are scraped into 5 ml of 20 mM Tris-HCl, 5 mM EDTA, pH 7.5, and lysed by sonication. The cell lysates are centrifuged at 1000 rpm for 5 min. at 4° C., and the supernatant is centrifuged at 30,000× g for 20 min. at 4° C. […] Optimal membrane suspension dilutions, defined as the protein concentration required to bind less than 10% of the added radioligand, are added to 96-well polpropylene microtiter plates containing ^3H-labeled compound, unlabeled compounds, and binding buffer to a final volume of 250 μl. In equilibrium saturation binding assays membrane preparations are incubated in the presence of increasing concentrations of [^3H]-labeled compound.
# Competition assay: 50 pM radioligand, 10–12 points. Binding reaction mixtures are incubated for 2 hr at 25° C., and the reaction stopped by filtration through a double layer of GF filters treated with 0.1% polyethyleneimine, using a cell harvester. Wash buffer: 50 mM Tris-HCl, 0.1% BSA. Radioactivity may be measured by scintillation counting and data are analyzed by a computerized non-linear regression program. Non-specific binding is defined as the amount of radioactivity remaining after incubation of membrane protein in the presence of 1 μM final concentration […]. Protein concentration may be measured by the Bradford method using Bio-Rad Reagent, with bovine serum albumin as a standard. […]
# NPFF receptors = details: at a concentration of 10 μM; spinal cord membranes; cited from earlier work
compound,measurement,setting,value
CC(C)C[C@H](NC(=O)CNC(=O)[C@H](C)NC(=O)[C@H](CC(C)C)NC(=O)[C@H](CCCNC(=N)N)NC(=O)[C@H](Cc1c[nH]cn1)NC(=O)[C@@H](NC(=O)[C@@H](NC(=O)[C@@H]1CSSC[C@H](NC(=O)[C@H](C)N)C(=O)N[C@@H](CC(=O)O)C(=O)N[C@@H]([C@@H](C)O)C(=O)N[C@@H](C)C(=O)N[C@@H]([C@@H](C)O)C(=O)N1)C(C)C)[C@@H](C)O)C(=O)N[C@@H](CC(C)C)C(=O)N[C@@H](CO)C(=O)N[C@@H](CCCNC(=N)N)C(=O)N[C@@H](CO)C(=O)NCC(=O)NCC(=O)N[C@H](C(=O)N[C@H](C(=O)N[C@@H](CCCCN)C(=O)N[C@@H](CC(N)=O)C(=O)N[C@@H](CC(N)=O)C(=O)N[C@@H](Cc1ccccc1)C(=O)N[C@H](C(=O)N1CCC[C@H]1C(=O)N[C@H](C(=O)N[C@@H](CC(N)=O)C(=O)N[C@H](C(=O)NCC(=O)N[C@@H](CO)C(=O)N[C@@H](CCCCN)C(=O)N[C@@H](C)C(=O)N[C@@H](Cc1ccccc1)C(N)=O)C(C)C)[C@@H](C)O)C(C)C)C(C)C)C(C)C [CGRP],"pKi for rat spinal cord membrane receptor binding, MEAN",[1],5.000
same,inhibition of [125I](1DMe)Y8Fa binding,NPFF receptors,No inhibition
